Test results taken from patent US9765037B2 (dated 2017).

Protein sequences, listed by entry. Tags and fused reporters are not part of them. Residues count along the entry.
UniProt P00519, 242-493: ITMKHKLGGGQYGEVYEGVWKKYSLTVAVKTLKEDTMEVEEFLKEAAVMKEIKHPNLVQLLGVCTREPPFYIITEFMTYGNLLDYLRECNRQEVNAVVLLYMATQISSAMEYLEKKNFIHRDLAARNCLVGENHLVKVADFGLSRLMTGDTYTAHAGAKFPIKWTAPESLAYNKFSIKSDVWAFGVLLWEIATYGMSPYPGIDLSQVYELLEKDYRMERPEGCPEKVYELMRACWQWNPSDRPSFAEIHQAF
UniProt P00519, whole entry, looked up: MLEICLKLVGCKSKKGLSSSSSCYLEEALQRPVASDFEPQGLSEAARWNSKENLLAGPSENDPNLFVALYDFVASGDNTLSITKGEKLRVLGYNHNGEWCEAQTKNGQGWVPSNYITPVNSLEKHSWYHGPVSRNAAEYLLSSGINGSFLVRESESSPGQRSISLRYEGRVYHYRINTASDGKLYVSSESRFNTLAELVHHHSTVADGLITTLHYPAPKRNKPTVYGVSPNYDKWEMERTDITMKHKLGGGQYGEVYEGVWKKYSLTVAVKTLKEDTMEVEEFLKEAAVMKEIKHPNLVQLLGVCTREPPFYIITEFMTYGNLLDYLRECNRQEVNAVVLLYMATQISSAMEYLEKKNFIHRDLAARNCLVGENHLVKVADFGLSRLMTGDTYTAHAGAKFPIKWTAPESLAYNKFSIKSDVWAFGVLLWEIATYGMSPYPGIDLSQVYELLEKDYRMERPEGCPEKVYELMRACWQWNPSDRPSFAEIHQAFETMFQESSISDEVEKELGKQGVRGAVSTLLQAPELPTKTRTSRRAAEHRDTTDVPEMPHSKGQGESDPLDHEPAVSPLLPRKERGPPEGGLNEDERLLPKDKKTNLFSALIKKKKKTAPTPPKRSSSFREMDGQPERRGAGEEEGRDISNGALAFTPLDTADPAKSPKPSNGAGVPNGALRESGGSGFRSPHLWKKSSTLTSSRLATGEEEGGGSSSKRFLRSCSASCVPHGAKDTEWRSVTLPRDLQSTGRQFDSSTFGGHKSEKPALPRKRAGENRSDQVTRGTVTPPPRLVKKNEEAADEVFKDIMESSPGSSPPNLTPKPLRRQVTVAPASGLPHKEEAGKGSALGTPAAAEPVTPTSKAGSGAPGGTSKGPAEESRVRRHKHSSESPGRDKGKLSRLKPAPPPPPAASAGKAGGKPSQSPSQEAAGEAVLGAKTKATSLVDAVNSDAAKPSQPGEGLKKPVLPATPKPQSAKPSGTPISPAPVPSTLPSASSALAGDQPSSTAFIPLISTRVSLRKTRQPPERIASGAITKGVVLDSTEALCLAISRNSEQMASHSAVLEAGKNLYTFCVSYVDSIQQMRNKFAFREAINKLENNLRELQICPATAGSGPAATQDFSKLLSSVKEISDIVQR
UniProt Q9BJF5, 1-507: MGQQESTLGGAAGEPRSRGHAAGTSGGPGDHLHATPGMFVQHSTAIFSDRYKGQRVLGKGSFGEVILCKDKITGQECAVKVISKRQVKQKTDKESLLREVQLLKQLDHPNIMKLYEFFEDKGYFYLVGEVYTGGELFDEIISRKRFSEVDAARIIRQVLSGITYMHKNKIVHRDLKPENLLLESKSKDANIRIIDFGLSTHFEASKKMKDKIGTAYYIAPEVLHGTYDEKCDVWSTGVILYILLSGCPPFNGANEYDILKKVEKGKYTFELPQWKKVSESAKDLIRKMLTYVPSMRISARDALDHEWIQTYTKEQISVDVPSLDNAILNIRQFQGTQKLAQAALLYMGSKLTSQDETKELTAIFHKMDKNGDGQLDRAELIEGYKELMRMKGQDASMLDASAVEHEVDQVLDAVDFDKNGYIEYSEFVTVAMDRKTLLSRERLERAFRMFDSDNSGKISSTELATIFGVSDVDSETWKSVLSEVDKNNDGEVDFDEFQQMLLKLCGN

Tests used:
[1] = system: glioma derived (SF539); test: Growth inhibition of human cell line SF539; settings: read-out: GI50 (μM) SF539
[2] = system: human promyelocytic leukemia (HL-60); test: Growth inhibition of human cell line HL-60; settings: read-out: GI50 (μM) HL60
[3] = system: human lymphocyte (CRL8155); test: Growth inhibition of human cell line CRL8155; settings: read-out: GI50 (μM) CRL8155
[4] = system: colorectal carcinoma (HC 2998); test: Growth inhibition of human cell line HC 2998; settings: read-out: GI50 (μM) HCC2998
[5] = target: AblKD (Homo sapiens (Human), UniProt P00519); test: Tyrosine kinase IC50, AblKD; settings: read-out: IC50 (μM) AblKD
[6] = target: T1, TgCDPK1 (Toxoplasma gondii, UniProt Q9BJF5); test: biochemical
[7] = target: T1, TgCDPK1; test: biochemical; remark: listed apart in the source
[8] = system: P. falciparum NF-54 strain gametocytes; format: cell-based, Plasmodium falciparum
[9] = in vitro; settings: mouse, microsomes
[10] = target: SrcKD (Homo sapiens (Human), UniProt P12931); test: Tyrosine kinase IC50, SrcKD; settings: read-out: IC50 (μM) SrcKD
[11] = target: Abl3D (Homo sapiens, UniProt P00519); test: Tyrosine kinase IC50, Abl3D; settings: read-out: IC50 (μM) Abl3D
[12] = target: T1, TgCDPK1; settings: read-out: IC50 (μM) TgCDPK1

SMILES	GI50 [1] [µM]	GI50 [2] [µM]	GI50 [3] [µM]	GI50 [4] [µM]	also measured
CC(C)n1nc(-c2cnc3ccccc3c2)c2c(N)ncnc21 [Compound 7t, 1-isopropyl-3-(quinolin-3-yl)-1H-pyrazolo[3,4-d]pyrimidin-4-amine]	> 10	> 10	> 10	> 10	
CC(C)n1nc(Cc2cccc3ccccc23)c2c(N)ncnc21 [Compound 3, 1-isopropyl-3-(naphthalen-1-ylmethyl)-1H-pyrazolo[3,4-d]pyrimidin-4-amine]	> 10	> 10	> 10	> 10	
COc1ccc2cc(-c3nn(C(C)C)c4ncnc(N)c34)ccc2c1 [Compound 7q, 1-isopropyl-3-(6-methoxynaphthalen-2-yl)-1H-pyrazolo[3,4-d]pyrimidin-4-amine]					IC50 [5]: 0.82 µM
CC(C)(C)n1nc(-c2cccc3ccccc23)c2c(N)ncnc21 [NA-PP1]					pIC50 [6]: 6.32; pIC50 ([7]; Inhibitor IC50 values, TgCDPK1, KinaseGlo): 6.09; IC50 ([7]; Wild type TgCDPK1 (IC50 in μM)): 0.989 µM
CC(C)(C)n1nc(-c2ccc3ccccc3c2)c2c(N)ncnc21 [Compound 2, 1-tert-butyl-3-(naphthalen-2-yl)-1H-pyrazolo[3,4-d]pyrimidin-4-amine]	> 10	> 10	> 10	> 10	
CCOc1ccc2cc(-c3nn(CC4CCNCC4)c4ncnc(N)c34)ccc2c1 [Compound 29, 3-(6-ethoxynaphthalen-2-yl)-1-(piperidin-4-ylmethyl)-1H-pyrazolo[3,4-d]pyrimidin-4-amine]					sporozoite load in infected salivary glands, diminished relative to untreated controls [8]: 86%; suppression of P. falciparum exflagellation events, repeat experiment ([8]; 0.3 μM): > 90%; half-life [9]: > 1 h
CC(C)n1nc(-c2ccc(Cl)c(Cl)c2)c2c(N)ncnc21 [Compound 7c, 3-(3,4-dichlorophenyl)-1-isopropyl-1H-pyrazolo[3,4-d]pyrimidin-4-amine]	> 10	> 10	> 10	> 10	
CC(C)(C)n1nc(Cc2cccc3ccccc23)c2c(N)ncnc21 [Compound 5d, 1-tert-butyl-3-(naphthalen-1-ylmethyl)-1H-pyrazolo[3,4-d]pyrimidin-4-amine]					IC50 [10]: 2.2 µM
CCOc1ccc2cc(-c3nn(C4CCN(C)CC4)c4ncnc(N)c34)ccc2c1 [Compound 148]					IC50 [10]: 5.58 µM
CCN1CCC(Cn2nc(Cc3cccc4ccccc34)c3c(N)ncnc32)CC1 [Compound 5n, 1-((1-ethylpiperidin-4-yl)methyl)-3-(naphthalen-1-ylmethyl)-1H-pyrazolo[3,4-d]pyrimidin-4-amine]	> 10	> 10	> 10	> 10	
CC(C)n1nc(-c2cc3c(Cl)cccc3[nH]2)c2c(N)ncnc21 [Compound 26, 3-(4-chloro-1H-indol-2-yl)-1-isopropyl-1H-pyrazolo[3,4-d]pyrimidin-4-amine]					IC50 [11]: 0.304 µM
CS(=O)(=O)N1CCC(n2nc(Cc3cccc4ccccc34)c3c(N)ncnc32)CC1 [Compound 5p, 1-(1-(methylsulfonyl)piperidin-4-yl)-3-(naphthalen-1-ylmethyl)-1H-pyrazolo[3,4-d]pyrimidin-4-amine]	> 10	> 10	> 10	> 10	
CC(C)(C)n1nc(-c2cccc3ccccc23)c2c(N)ncnc21 [Compound 1, 1-tert-butyl-3-(naphthalen-1-yl)-1H-pyrazolo[3,4-d]pyrimidin-4-amine]					IC50 [12]: 1.62 µM

pIC50: −log10 of the molar value. Where two headings read alike, the source gives them in different places.
